Reference: the supplement of paper PMC5998384

Experiments:
[1] = tested on: HeLa Kyoto; assay: melting temperature (median over replicates), in situ; higher = more thermally stable
[2] = tested on: HeLa Kyoto; assay: thermal stability score vs G1/S (z-score of summed log2 fold changes over temperatures); higher = more thermally stable than in G1/S
[3] = tested on: HeLa Kyoto; assay: solubility change mitosis vs G1/S (difference of NP-40 vs SDS log2 ratios) (log2 ratio difference); higher = more soluble in mitosis
[4] = tested on: HeLa Kyoto; assay: solubility in G1/S (NP-40 vs SDS abundance) (log2 ratio); higher = more soluble; details: cell cycle stage: G1/S
[5] = cell cycle stage: early G1 (4.5 h after nocodazole release)
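Throughout, for melting temperature (median over replicates), in situ: HeLa Kyoto cells synchronized by double thymidine or nocodazole block, proteins quantified by TMT10plex mass spectrometry, three independent biological replicates.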
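Throughout, for solubility change mitosis vs G1/S (difference of NP-40 vs SDS log2 ratios): synchronized HeLa Kyoto cells (double thymidine block for G1/S, nocodazole release for mitosis), protein amounts in NP-40 versus SDS lysates quantified by mass spectrometry, three biological replicates.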
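Throughout, for solubility in G1/S (NP-40 vs SDS abundance): HeLa Kyoto cells arrested at G1/S by double thymidine block, proteins quantified by TMT10plex mass spectrometry in mild NP-40 versus SDS extracts, three biological replicates.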
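Throughout, for thermal stability score vs G1/S (z-score of summed log2 fold changes over temperatures): synchronized HeLa Kyoto cells, proteins quantified by TMT10plex mass spectrometry, three biological replicates, mitosis taken 0.5 h after nocodazole release, G1/S directly after double thymidine block.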

Sequence | melting temperature ([1]; cell cycle stage: G1/S) | melting temperature ([1]; cell cycle stage: mitosis) | thermal stability score [2, 5] | thermal stability score ([2]; cell cycle stage: mitosis) | solubility change mitosis (log2) [3] | solubility in G1/S (log2) [4]
MASLLKVDQEVKLKVDSFRERITSEAEDLVANFFPKKLLELDSFLKEPILNIHDLTQIHSDMNLPVPDPILLTNSHDGLDGPTYKKRRLDECEEAFQGTKVFVMPNGMLKSNQQLVDIIEKVKPEIRLLIEKCNTVKMWVQLLIPRIEDGNNFGVSIQEETVAELRTVESEAASYLDQISRYYITRAKLVSKIAKYPHVEDYRRTVTEIDEKEYISLRLIISELRNQYVTLHDMILKNIEKIKRPRSSNAETLY [PSME3] | 53.5 °C | 56.2 °C | -1.26 | -2.32 | -0.0631 | 0.175
MFRNQYDNDVTVWSPQGRIHQIEYAMEAVKQGSATVGLKSKTHAVLVALKRAQSELAAHQKKILHVDNHIGISIAGLTADARLLCNFMRQECLDSRFVFDRPLPVSRLVSLIGSKTQIPTQRYGRRPYGVGLLIAGYDDMGPHIFQTCPSANYFDCRAMSIGARSQSARTYLERHMSEFMECNLNELVKHGLRALRETLPAEQDLTTKNVSIGIVGKDLEFTIYDDDDVSPFLEGLEERPQRKAQPAQPADEPAEKADEPMEH [PSMA1] | 56.7 °C | 58.2 °C | -1.84 | -2.67 | 0.0405 | 0.506
MGQSQSGGHGPGGGKKDDKDKKKKYEPPVPTRVGKKKKKTKGPDAASKLPLVTPHTQCRLKLLKLERIKDYLLMEEEFIRNQEQMKPLEEKQEEERSKVDDLRGTPMSVGTLEEIIDDNHAIVSTSVGSEHYVSILSFVDKDLLEPGCSVLLNHKVHAVIGVLMDDTDPLVTVMKVEKAPQETYADIGGLDNQIQEIKESVELPLTHPEYYEEMGIKPPKGVILYGPPGTGKTLLAKAVANQTSATFLRVVGSELIQKYLGDGPKLVRELFRVAEEHAPSIVFIDEIDAIGTKRYDSNSGGEREIQRTMLELLNQLDGFDSRGDVKVIMATNRIETLDPALIRPGRIDRKIEFPLPDEKTKKRIFQIHTSRMTLADDVTLDDLIMAKDDLSGADIKAICTEAGLMALRERRMKVTNEDFKKSKENVLYKKQEGTPEGLYL [PSMC1] | 53.3 °C | 52.4 °C | 2.71 | 1.79 | -0.0938 | 0.335
MIPPQEASARRREIEDKLKQEEETLSFIRDSLEKSDQLTKNMVSILSSFESRLMKLENSIIPVHKQTENLQRLQENVEKTLSCLDHVISYYHVASDTEKIIREGPTGRLEEYLGSMAKIQKAVEYFQDNSPDSPELNKVKLLFERGKEALESEFRSLMTRHSKVVSPVLILDLISGDDDLEAQEDVTLEHLPESVLQDVIRISRWLVEYGRNQDFMNVYYQIRSSQLDRSIKGLKEHFHKSSSSSGVPYSPAIPNKRKDTPTKKPVKRPGTIRKAQNLLKQYSQHGLDGKKGGSNLIPLEGLLPCTPRGGLPGPWINAACVCAADISPGHEHDFRVKHLSEALNDKHGPLAGRDDMLDVETDAYIHCVSAFVKLAQSEYQLLADIIPEHHQKKTFDSLIQDALDGLMLEGENIVSAARKAIVRHDFSTVLTVFPILRHLKQTKPEFDQVLQGTAASTKNKLPGLITSMETIGAKALEDFADNIKNDPDKEYNMPKDGTVHELTSNAILFLQQLLDFQETAGAMLASQETSSSATSYSSEFSKRLLSTYICKVLGNLQLNLLSKSKVYEDPALSAIFLHNNYNYILKSLEKSELIQLVAVTQKTAERSYREHIEQQIQTYQRSWLKVTDYIAEKNLPVFQPGVKLRDKERQIIKERFKGFNDGLEELCKIQKAWAIPDTEQRDRIRQAQKTIVKETYGAFLQKFGSVPFTKNPEKYIKYGVEQVGDMIDRLFDTSA [EXOC7] | 49.7 °C | 48.6 °C | 0.666 | 1.11 | -0.0918 | 0.199
MPVAVMAESAFSFKKLLDQCENQELEAPGGIATPPVYGQLLALYLLHNDMNNARYLWKRIPPAIKSANSELGGIWSVGQRIWQRDFPGIYTTINAHQWSETVQPIMEALRDATRRRAFALVSQAYTSIIADDFAAFVGLPVEEAVKGILEQGWQADSTTRMVLPRKPVAGALDVSFNKFIPLSEPAPVPPIPNEQQLARLTDYVAFLEN [COPS8] | 53.2 °C | 54.4 °C | -2.77 | -2.42 | 0.00312 | 0.393
MSGRPRTTSFAESCKPVQQPSAFGSMKVSRDKDGSKVTTVVATPGQGPDRPQEVSYTDTKVIGNGSFGVVYQAKLCDSGELVAIKKVLQDKRFKNRELQIMRKLDHCNIVRLRYFFYSSGEKKDEVYLNLVLDYVPETVYRVARHYSRAKQTLPVIYVKLYMYQLFRSLAYIHSFGICHRDIKPQNLLLDPDTAVLKLCDFGSAKQLVRGEPNVSYICSRYYRAPELIFGATDYTSSIDVWSAGCVLAELLLGQPIFPGDSGVDQLVEIIKVLGTPTREQIREMNPNYTEFKFPQIKAHPWTKVFRPRTPPEAIALCSRLLEYTPTARLTPLEACAHSFFDELRDPNVKLPNGRDTPALFNFTTQELSSNPPLATILIPPHARIQAAASTPTNATAASDANTGDRGQTNNAASASASNST [GSK3B] | 51.6 °C | 52.3 °C | 0.263 | -1.16 | -0.145 | 0.178
MSRRKPASGGLAASSSAPARQAVLSRFFQSTGSLKSTSSSTGAADQVDPGAAAAAAAAAAAAPPAPPAPAFPPQLPPHIATEIDRRKKRPLENDGPVKKKVKKVQQKEGGSDLGMSGNSEPKKCLRTRNVSKSLEKLKEFCCDSALPQSRVQTESLQERFAVLPKCTDFDDISLLHAKNAVSSEDSKRQINQKDTTLFDLSQFGSSNTSHENLQKTASKSANKRSKSIYTPLELQYIEMKQQHKDAVLCVECGYKYRFFGEDAEIAARELNIYCHLDHNFMTASIPTHRLFVHVRRLVAKGYKVGVVKQTETAALKAIGDNRSSLFSRKLTALYTKSTLIGEDVNPLIKLDDAVNVDEIMTDTSTSYLLCISENKENVRDKKKGNIFIGIVGVQPATGEVVFDSFQDSASRSELETRMSSLQPVELLLPSALSEQTEALIHRATSVSVQDDRIRVERMDNIYFEYSHAFQAVTEFYAKDTVDIKGSQIISGIVNLEKPVICSLAAIIKYLKEFNLEKMLSKPENFKQLSSKMEFMTINGTTLRNLEILQNQTDMKTKGSLLWVLDHTKTSFGRRKLKKWVTQPLLKLREINARLDAVSEVLHSESSVFGQIENHLRKLPDIERGLCSIYHKKCSTQEFFLIVKTLYHLKSEFQAIIPAVNSHIQSDLLRTVILEIPELLSPVEHYLKILNEQAAKVGDKTELFKDLSDFPLIKKRKDEIQGVIDEIRMHLQEIRKILKNPSAQYVTVSGQEFMIEIKNSAVSCIPTDWVKVGSTKAVSRFHSPFIVENYRHLNQLREQLVLDCSAEWLDFLEKFSEHYHSLCKAVHHLATVDCIFSLAKVAKQGDYCRPTVQEERKIVIKNGRHPVIDVLLGEQDQYVPNNTDLSEDSERVMIITGPNMGGKSSYIKQVALITIMAQIGSYVPAEEATIGIVDGIFTRMGAADNIYKGQSTFMEELTDTAEIIRKATSQSLVILDELGRGTSTHDGIAIAYATLEYFIRDVKSLTLFVTHYPPVCELEKNYSHQVGNYHMGFLVSEDESKLDPGAAEQVPDFVTFLYQITRGIAARSYGLNVAKLADVPGEILKKAAHKSKELEGLINTKRKRLKYFAKLWTMHNAQDLQKWTEEFNMEETQTSLLH [MSH3] | 50.8 °C | 51.1 °C | 0.443 | 1.61 | -0.11 | -0.0694
MSRSRQPPLVTGISPNEGIPWTKVTIRGENLGTGPTDLIGLTICGHNCLLTAEWMSASKIVCRVGQAKNDKGDIIVTTKSGGRGTSTVSFKLLKPEKIGILDQSAVWVDEMNYYDMRTDRNKGIPPLSLRPANPLGIEIEKSKFSQKDLEMLFHGMSADFTSENFSAAWYLIENHSNTSFEQLKMAVTNLKRQANKKSEGSLAYVKGGLSTFFEAQDALSAIHQKLEADGTEKVEGSMTQKLENVLNRASNTADTLFQEVLGRKDKADSTRNALNVLQRFKFLFNLPLNIERNIQKGDYDVVINDYEKAKSLFGKTEVQVFKKYYAEVETRIEALRELLLDKLLETPSTLHDQKRYIRYLSDLHASGDPAWQCIGAQHKWILQLMHSCKEGYVKDLKGNPGLHSPMLDLDNDTRPSVLGHLSQTASLKRGSSFQSGRDDTWRYKTPHRVAFVEKLTKLVLSQLPNFWKLWISYVNGSLFSETAEKSGQIERSKNVRQRQNDFKKMIQEVMHSLVKLTRGALLPLSIRDGEAKQYGGWEVKCELSGQWLAHAIQTVRLTHESLTALEIPNDLLQTIQDLILDLRVRCVMATLQHTAEEIKRLAEKEDWIVDNEGLTSLPCQFEQCIVCSLQSLKGVLECKPGEASVFQQPKTQEEVCQLSINIMQVFIYCLEQLSTKPDADIDTTHLSVDVSSPDLFGSIHEDFSLTSEQRLLIVLSNCCYLERHTFLNIAEHFEKHNFQGIEKITQVSMASLKELDQRLFENYIELKADPIVGSLEPGIYAGYFDWKDCLPPTGVRNYLKEALVNIIAVHAEVFTISKELVPRVLSKVIEAVSEELSRLMQCVSSFSKNGALQARLEICALRDTVAVYLTPESKSSFKQALEALPQLSSGADKKLLEELLNKFKSSMHLQLTCFQAASSTMMKT [EXOC2] | 49.7 °C | 49.2 °C | 0.241 | 0.641 | -0.156 | -0.00661
MSSGLRAADFPRWKRHISEQLRRRDRLQRQAFEEIILQYNKLLEKSDLHSVLAQKLQAEKHDVPNRHEISPGHDGTWNDNQLQEMAQLRIKHQEELTELHKKRGELAQLVIDLNNQMQRKDREMQMNEAKIAECLQTISDLETECLDLRTKLCDLERANQTLKDEYDALQITFTALEGKLRKTTEENQELVTRWMAEKAQEANRLNAENEKDSRRRQARLQKELAEAAKEPLPVEQDDDIEVIVDETSDHTEETSPVRAISRAATKRLSQPAGGLLDSITNIFGRRSVSSFPVPQDNVDTHPGSGKEVRVPATALCVFDAHDGEVNAVQFSPGSRLLATGGMDRRVKLWEVFGEKCEFKGSLSGSNAGITSIEFDSAGSYLLAASNDFASRIWTVDDYRLRHTLTGHSGKVLSAKFLLDNARIVSGSHDRTLKLWDLRSKVCIKTVFAGSSCNDIVCTEQCVMSGHFDKKIRFWDIRSESIVREMELLGKITALDLNPERTELLSCSRDDLLKVIDLRTNAIKQTFSAPGFKCGSDWTRVVFSPDGSYVAAGSAEGSLYIWSVLTGKVEKVLSKQHSSSINAVAWSPSGSHVVSVDKGCKAVLWAQY [ATG16L1] | 54.2 °C | 54.2 °C | -0.0564 | -1.24 | -0.0563 | -0.171
